Only a part is listed here, and it is no random draw. The source made the active and inactive calls.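 Rule for the calls: active = activation above the mean of all tested compounds plus 3 SD, computed per campaign excluding outliers beyond control limits (cut at about 13% in these data); inactive = the rest.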

Chains of the proteins cited; added tags and fusions are not shown. Lines headed by an entry give the natural chain unless they say otherwise; changes in a name come on top.
UniProt P49862: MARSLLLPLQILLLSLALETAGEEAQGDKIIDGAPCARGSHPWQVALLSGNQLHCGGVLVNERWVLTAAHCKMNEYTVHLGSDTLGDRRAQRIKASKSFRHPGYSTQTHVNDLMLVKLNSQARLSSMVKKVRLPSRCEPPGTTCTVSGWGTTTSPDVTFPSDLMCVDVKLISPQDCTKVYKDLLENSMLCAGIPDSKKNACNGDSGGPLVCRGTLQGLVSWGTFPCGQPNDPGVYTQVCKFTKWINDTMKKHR

The experiment has as its target Kallikrein-7 (Homo sapiens) (UniProt P49862). The experiment is described as follows: activation of human kallikrein-7 proenzyme – biochemical, fluorescence intensity, primary screen (AID 652039). The following applies: purified proKLK7, EDANS-DABCYL substrate fluorescence; at 7 µM; active compounds read high; 100% is mature enzyme control, 0% vehicle.
Turning to `Oc1ccccc1CNc1ccccn1`, the activation was inactive: 0.68%.

For the compound `O=C(NC(Sc1ccncn1)C(Cl)(Cl)Cl)c1ccccc1` (stereo unspecified), the activation is inactive: -0.12%.

With `CC(C)CC(=O)NC(Sc1ccc(Cl)cc1)C(Cl)(Cl)Cl` (stereo unspecified), the activation was inactive: 0.14%.

Take `Nc1cc(N)c2nonc2c1[N+](=O)[O-]`: the activation was inactive: 0.14%.

Regarding `CN(C(=O)Cc1ccc(Cl)c(Cl)c1)[C@H]1CCCC[C@H]1N1CCCC1`, the activation was inactive: -0.89%.

Consider `Cc1ccc(N/C(=N/P(=O)(N2CCOCC2)N2CCOCC2)N2CCOCC2)cc1`, for which the activation was inactive: 0.32%.

Consider `NC(=O)c1cc([N+](=O)[O-])cc([N+](=O)[O-])c1N`, for which the activation was inactive: 0.2%.

As to `Clc1ccc(Cl)c(NC2=NCC(CBr)S2)c1` (stereo unspecified), the activation is inactive: 0.41%.

With `CN1CCCC(OC(=O)C(c2ccccc2)c2ccccc2)C1` (stereo unspecified), the activation is inactive: 0.16%.

For the compound `COc1ccccc1OP(=O)(Nc1ccc(C)cn1)Oc1ccccc1OC`, the activation is inactive: -0.21%.

Turning to `Cc1ccc(OP(=O)(Nc2nccs2)Oc2ccc(C)cc2)cc1`, the activation was inactive: 0.14%.

Regarding `Nc1cccc2ccc([As](=O)(O)O)cc12`, the activation was active: 24.6%.

Consider `CN(C(=O)Cc1ccccc1)C1CC[C@@]2(CCCO2)C[C@@H]1N1CCCC1` (stereo partly specified), for which the activation is inactive: -0.59%.

As for `CCN(N=Nc1nonc1N)c1nonc1N`, the activation was inactive: 0.23%.

With `CN(C)P(=O)(N(C)C)n1c(Nc2ccccc2)nnc1-c1ccccc1`, the activation is inactive: 0.99%.

In the case of `O=P(Nc1nc2ccc(Cl)cc2s1)(c1ccccc1)c1ccccc1`, the activation was inactive: -0.34%.

Take `O=C(O)c1ccccc1[As](=O)(O)O`: the activation is inactive: -0.55%.

With `CC(=O)Nc1ccc([As](=O)(O)O)cc1`, the activation was inactive: -0.08%.

In the case of `CCCC1OP(N)(=O)OCC1CC` (stereo unspecified), the activation was inactive: -0.14%.

Regarding `CCn1c(=O)n(C2CCN(CC3CCCCCCC3)C[C@H]2CO)c2ccccc21` (stereo partly specified), the activation was inactive: 0.46%.

`CCOP(=O)(Nc1ccccc1)OCC`: the activation is inactive: -0.24%.

In the case of `Cc1cc(SC(NC(=O)c2ccc(F)cc2)C(Cl)(Cl)Cl)ncn1` (stereo unspecified), the activation is inactive: -0.46%.

Regarding `CN(C(=O)Cc1ccc(Cl)c(Cl)c1)[C@H]1CCCC[C@@H]1N1CCCC1`, the activation was inactive: 0.02%.

As for `Cc1ccc(NP(=O)(Oc2ccccc2F)Oc2ccccc2F)nc1`, the activation is inactive: 0.88%.

For the compound `O=[N+]([O-])c1ncn(CCn2ncnc2[N+](=O)[O-])n1`, the activation was inactive: 0.35%.

For the compound `CC(C)(C)C(=O)NC(Sc1ccncn1)C(Cl)(Cl)Cl` (stereo unspecified), the activation was inactive: 0.46%.

With `O=C(O)CNc1ccc([As](=O)(O)O)cc1`, the activation was inactive: -0.46%.

With `O=[N+]([O-])c1cccc(NC2=NCC(CBr)S2)c1` (stereo unspecified), the activation was inactive: -0.45%.

For `COC(=O)C1(C)COP(=O)(Nc2ccccc2)OC1` (stereo unspecified), the activation is inactive: -0.33%.

`O=P1(N(CCCl)CCCl)OCCCS1` (stereo unspecified): the activation is inactive: -0.03%.

For `O=C(Nc1cc([As](=O)(O)O)ccc1O)c1ccccc1`, the activation was inactive: -0.49%.

With `CCN(/C(=N/P(=O)(N1CCOCC1)N1CCOCC1)N1CCOCC1)c1ccc(OC)cc1`, the activation was inactive: -0.32%.

As for `Nc1ccc([As](=O)(O)c2ccc(N)cc2)cc1`, the activation was inactive: 0.07%.

Take `C[N+]1=C2C=CC=CC=C2SC12C([N+](=O)[O-])=CC([N+](=O)[O-])=C[C-]2[N+](=O)[O-]` (stereo unspecified): the activation is inactive: 0.03%.

`c1cc(-c2nn[nH]n2)ccc1-c1nn[nH]n1`: the activation was inactive: -0.6%.

For `CC1CCN(C(=O)Oc2c(Cl)cc(Cl)c3cccnc23)CC1`, the activation was inactive: -0.14%.

On to `CC(C)=N/N=C(\N)N[N+](=O)[O-]`, for which the activation is inactive: 0.23%.

Consider `CC(C)c1nc(Nc2ccccc2)n(P(=O)(N(C)C)N(C)C)n1`, for which the activation was inactive: -0.21%.

Regarding `CN(C)C(=O)OCCc1n(C)cc[n+]1C`, the activation is inactive: -0.06%.

For the compound `COc1ccc(C2=NCC(CBr)S2)cc1` (stereo unspecified), the activation is inactive: 0.04%.

As to `Cc1ccc(NP(=O)(Oc2ccccc2)Oc2ccccc2)nc1`, the activation was inactive: 1.36%.

For `O=[N+]([O-])c1cc([N+](=O)[O-])c(CCNc2ccccc2)c([N+](=O)[O-])c1`, the activation is inactive: -0.14%.

Regarding `CCc1nc2c(n1)c1c(non1O)c1c2no[n+]1[O-]`, the activation was inactive: -0.1%.

For `CC(=O)N1C2C3N(C(C)=O)C1C1N(C(C)=O)C(C(N1C(C)=O)N3C(C)=O)N2C(C)=O`, the activation was inactive: -0.15%.

With `O=[N+]([O-])c1cccc2n[nH]nc12`, the activation is inactive: -0.44%.

With `O=P(Nc1nccs1)(c1ccccc1)c1ccccc1`, the activation was inactive: -0.43%.

With `CC(C)C(=O)NC(Sc1ccccc1)C(Cl)(Cl)Cl` (stereo unspecified), the activation is inactive: 0.25%.

As for `c1nnnn1CCn1cnnn1`, the activation is inactive: 0%.

With `O=[As](O)(c1ccccc1)c1ccc(O)cc1`, the activation was inactive: 0.22%.

With `O=[N+]([O-])c1ncn(CCn2cnc([N+](=O)[O-])n2)n1`, the activation is inactive: 0.12%.

In the case of `CC(=O)NC(SC(=S)N(C)C)C(Cl)(Cl)Cl` (stereo unspecified), the activation is inactive: -0.07%.

Consider `O=C(OC1CN2CCC1CC2)c1cccc(Cl)c1` (stereo unspecified), for which the activation is inactive: 0.66%.

As to `C/C(N)=N\P(=O)(OCc1ccccc1)OCc1ccccc1`, the activation was inactive: 0.35%.

`Nc1ccc([As](=O)(O)c2ccc([N+](=O)[O-])cc2)cc1`: the activation was inactive: 0.32%.

In the case of `C(Cc1nn[nH]n1)Cc1nn[nH]n1`, the activation was inactive: 0.5%.

Turning to `CN(C)C1(CNC(=O)c2ccc(Cl)c(S(N)(=O)=O)c2)CCCCC1`, the activation is inactive: 0.74%.

Regarding `O=P(Nc1ccccn1)(c1ccc(Br)cc1)c1ccc(Br)cc1`, the activation was inactive: -0.32%.

Regarding `Nc1ccc(CCCCOc2ccccc2)cc1`, the activation is inactive: -0.57%.

As to `COc1ccc(N)c([N+](=O)[O-])c1[N+](=O)[O-]`, the activation is inactive: -0.01%.

For `O=P(Nc1nc2ccccc2s1)(c1ccccc1)c1ccccc1`, the activation was inactive: -0.1%.

For the compound `C[C@H]1OP(=O)(Oc2ccccc2)[C@H](O)[C@H](O)[C@H]1N=[N+]=[N-]` (stereo partly specified), the activation was inactive: 0.04%.

`O=C(OC1CN2CCC1CC2)c1ccccc1` (stereo unspecified): the activation is inactive: 0.44%.

On to `CCC(=O)N1C2C3N(C(=O)CC)C1C1N(C(=O)CC)C(C(N1C(=O)CC)N3C(=O)CC)N2C(=O)CC`, for which the activation was inactive: 0.23%.

For `COC(=O)c1cc2c(s1)N=C(c1ccccc1)N(C)P2(=O)N1CCOCC1` (stereo unspecified), the activation is inactive: -0.47%.

In the case of `Cc1ccc(OP(=O)(Nc2ccccn2)Oc2ccc(C)cc2)cc1`, the activation was inactive: -0.12%.

For the compound `CC(=O)NC(SC(=S)N(CC(C)C)CC(C)C)C(Cl)(Cl)Cl` (stereo unspecified), the activation is inactive: -0.63%.

Turning to `Cc1ccccc1OP(=O)(Nc1ccccn1)Oc1ccccc1C`, the activation was inactive: -0.39%.

`CC(NC(=O)COC(=O)C(O)(c1ccccc1)c1ccccc1)c1ccccc1` (stereo unspecified): the activation was inactive: 0.05%.

As to `CN(C)C(=O)Oc1noc2ccccc12`, the activation is inactive: 0.32%.

Consider `O=c1c2cc([N+](=O)[O-])ccc2[nH]c2c([N+](=O)[O-])cc([N+](=O)[O-])cc12`, for which the activation was inactive: -0.94%.

With `c1ccc(-c2nn[nH]n2)c(-c2nn[nH]n2)c1`, the activation was inactive: 0.1%.

In the case of `Cc1ccc(NP(=O)(Oc2cccc(C)c2)Oc2cccc(C)c2)nc1`, the activation is inactive: -0.24%.

Regarding `O=C(NC1CCS(=O)(=O)C1)NP(=S)(Oc1ccccc1)Oc1ccccc1` (stereo unspecified), the activation was inactive: 0.42%.

For `CCNC(=S)/N=C(\N)N[N+](=O)[O-]`, the activation is inactive: -0.31%.

On to `O=P1(N(CCCl)CCCl)OCCC2CCCCN21` (stereo unspecified), for which the activation was inactive: -0.12%.

In the case of `Cc1ccccc1CN(C)C(=O)COC(=O)C(O)(c1ccccc1)c1ccccc1`, the activation was inactive: 0.06%.

Regarding `C[C@@H]1C=CCP(=O)(Oc2ccccc2)O1` (stereo partly specified), the activation is inactive: -0.18%.

For `C[C@H]1OP(=O)(Oc2ccccc2)C[C@@H]2O[C@@H]21` (stereo partly specified), the activation was inactive: -0.55%.

Consider `N#C/C(=C\c1ccc(N(CCBr)CCBr)cc1)C(N)=O`, for which the activation was inactive: 1%.

Turning to `CC(=O)c1ccc(N2CC2c2ccncc2)cc1` (stereo unspecified), the activation was inactive: -0.36%.

As for `COC(=O)C1(C)COP(=O)(NCc2ccccc2)OC1` (stereo unspecified), the activation is inactive: -0.3%.

On to `CC(=O)Nc1ccc([As](=O)(O)O)c(O)c1`, for which the activation is inactive: 0.65%.

On to `CC(=O)Nc1ccc(Oc2c([N+](=O)[O-])cc([N+](=O)[O-])cc2[N+](=O)[O-])cc1`, for which the activation is inactive: -0.14%.

Turning to `O=P1(Nc2nc3ccc(Cl)cc3s2)COc2ccccc2O1` (stereo unspecified), the activation is inactive: 0.37%.

With `CCOc1ccc(C2=NCC(CBr)S2)cc1` (stereo unspecified), the activation is inactive: -0.74%.

With `CC(C)(C)C(=O)NC(Sc1ccccc1)C(Cl)(Cl)Cl` (stereo unspecified), the activation is inactive: 0.09%.

Take `CCc1cc(O)c([N+](=O)[O-])c(C)c1[N+](=O)[O-]`: the activation is inactive: -0.56%.

In the case of `Nc1cccc2c([As](=O)(O)O)cccc12`, the activation is inactive: -22.4%.

Take `Cc1ccc(NCCc2c([N+](=O)[O-])cc([N+](=O)[O-])cc2[N+](=O)[O-])cc1`: the activation is inactive: -0.32%.

For `CCCOP(=S)(Nc1nc(N)cc(=O)[nH]1)OCCC`, the activation was inactive: -0.26%.

Turning to `COc1cc(C2NCCC3(OCCO3)C2(C)C)cc(OC)c1OC` (stereo unspecified), the activation was inactive: 0.13%.

Turning to `CCOP(=O)(Nc1cccc2ccccc12)OCC`, the activation is inactive: 0.03%.

Take `O=C(OC1CN2CCC1CC2)c1ccc(Cl)cc1` (stereo unspecified): the activation is inactive: -0.67%.

On to `COc1cc(C(=O)NCC2(N3CCOCC3)CCCCC2)cc(Cl)c1OC(C)C`, for which the activation was inactive: 0.85%.

For `O=[As](O)(O)c1cccnc1`, the activation is inactive: 0.72%.

Regarding `CS(=O)(=O)c1ccc(Cl)c(NC(=O)COC(=O)C(O)(c2ccccc2)c2ccccc2)c1`, the activation is inactive: -0.51%.

For `O=[As](O)(c1cccc(O)c1)c1cccc(O)c1`, the activation is inactive: 0.5%.

`Cc1cccc(OCC(=O)OC2CN3CCC2CC3)c1` (stereo unspecified): the activation was inactive: 0.57%.

Consider `NC(=O)Nc1ccc([As](=O)(O)O)cc1`, for which the activation was inactive: -0.85%.

For `N#CCCN(C(=O)COC(=O)C(O)(c1ccccc1)c1ccccc1)c1ccc(F)cc1`, the activation is inactive: -0.27%.

As to `CN(C(=O)Cc1ccccc1)[C@@H]1CC[C@]2(CCCO2)C[C@H]1N1CCCC1`, the activation was inactive: 0.24%.
